2 molecules from BindingDB's records for doi:10.1002/1098-2396(20010101)39:1 (Nih, 2001) can be followed below.

The chains behind the UniProt entries cited, without tags or fusion partners.
UniProt P23977, whole entry: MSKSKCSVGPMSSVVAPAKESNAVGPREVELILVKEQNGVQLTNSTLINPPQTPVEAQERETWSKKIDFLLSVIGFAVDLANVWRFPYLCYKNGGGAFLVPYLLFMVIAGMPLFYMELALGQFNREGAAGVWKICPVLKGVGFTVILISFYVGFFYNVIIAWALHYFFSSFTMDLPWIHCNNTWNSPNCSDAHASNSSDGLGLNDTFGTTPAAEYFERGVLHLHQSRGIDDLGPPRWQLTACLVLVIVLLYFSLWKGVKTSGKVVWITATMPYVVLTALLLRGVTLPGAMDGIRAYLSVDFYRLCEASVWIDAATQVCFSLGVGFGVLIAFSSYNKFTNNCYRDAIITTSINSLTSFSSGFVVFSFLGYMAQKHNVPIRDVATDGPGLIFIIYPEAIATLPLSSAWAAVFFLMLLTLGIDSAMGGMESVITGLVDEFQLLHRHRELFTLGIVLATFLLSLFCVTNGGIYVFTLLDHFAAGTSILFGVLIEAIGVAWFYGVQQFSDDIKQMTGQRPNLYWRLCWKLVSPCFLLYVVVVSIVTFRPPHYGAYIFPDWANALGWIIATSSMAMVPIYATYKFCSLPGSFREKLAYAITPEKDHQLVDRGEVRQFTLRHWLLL
UniProt P31652, whole entry: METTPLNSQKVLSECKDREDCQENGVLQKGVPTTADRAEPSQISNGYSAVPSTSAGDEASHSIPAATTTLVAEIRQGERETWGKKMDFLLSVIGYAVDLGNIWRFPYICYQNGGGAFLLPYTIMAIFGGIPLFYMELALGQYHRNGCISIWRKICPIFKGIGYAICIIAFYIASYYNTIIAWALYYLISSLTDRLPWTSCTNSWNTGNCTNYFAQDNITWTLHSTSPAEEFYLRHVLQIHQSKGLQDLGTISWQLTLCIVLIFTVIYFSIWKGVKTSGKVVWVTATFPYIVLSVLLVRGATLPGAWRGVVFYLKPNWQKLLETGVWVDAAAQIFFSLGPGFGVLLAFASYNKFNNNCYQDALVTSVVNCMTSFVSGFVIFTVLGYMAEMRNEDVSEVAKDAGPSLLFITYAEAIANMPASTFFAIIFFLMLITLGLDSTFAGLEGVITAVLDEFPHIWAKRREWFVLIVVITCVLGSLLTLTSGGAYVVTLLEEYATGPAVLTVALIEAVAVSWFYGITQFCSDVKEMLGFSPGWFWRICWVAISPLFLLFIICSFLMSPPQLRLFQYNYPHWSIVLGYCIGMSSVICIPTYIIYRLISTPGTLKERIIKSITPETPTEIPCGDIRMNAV

The target in test [1] is Sodium-dependent dopamine transporter (Rattus norvegicus, UniProt P23977).
Test [2] concerns the target Sodium-dependent serotonin transporter (Rattus norvegicus, UniProt P31652).

Broadly, the Ki is the dissociation constant of the complex between target and ligand, obtained from inhibition or displacement.

Values joined by “and” are separate entries in the source; they are usually repeats but may differ in a detail not shown here. Equal entries are not always repeated. Structures can show the parent of a compound that is named as a salt. A value given as a limit tells only on which side of the number the result lay.

The molecule `CN(C)CCCC1(c2ccc(F)cc2)OCc2cc(C#N)ccc21` (configuration not stated) [CITALOPRAM HYDROBROMIDE] gave a Ki in test [1] greater than 10 µM.

Turning to `CN[C@@H](C)Cc1ccccc1` [METHAMPHETAMINE (+)], the Ki in test [2] is 2.14 µM and > 10 µM.
